Reference: patent publication US20230265116A1, “DEGRADATION OF (EGFR) BY CONJUGATION OF EGFR INHIBITORS WITH E3 LIGASE LIGAND AND METHODS OF USE” (BEIGENE, LTD., priority 2020, published 2023)

The chains behind the UniProt entries cited, without tags or fusion partners. A line that says so, or that is headed by a name, gives the form on record, which may keep a tag or linker. Residues count along the entry.
UniProt P00533, 25-1210 T790M/L858R limits assumed: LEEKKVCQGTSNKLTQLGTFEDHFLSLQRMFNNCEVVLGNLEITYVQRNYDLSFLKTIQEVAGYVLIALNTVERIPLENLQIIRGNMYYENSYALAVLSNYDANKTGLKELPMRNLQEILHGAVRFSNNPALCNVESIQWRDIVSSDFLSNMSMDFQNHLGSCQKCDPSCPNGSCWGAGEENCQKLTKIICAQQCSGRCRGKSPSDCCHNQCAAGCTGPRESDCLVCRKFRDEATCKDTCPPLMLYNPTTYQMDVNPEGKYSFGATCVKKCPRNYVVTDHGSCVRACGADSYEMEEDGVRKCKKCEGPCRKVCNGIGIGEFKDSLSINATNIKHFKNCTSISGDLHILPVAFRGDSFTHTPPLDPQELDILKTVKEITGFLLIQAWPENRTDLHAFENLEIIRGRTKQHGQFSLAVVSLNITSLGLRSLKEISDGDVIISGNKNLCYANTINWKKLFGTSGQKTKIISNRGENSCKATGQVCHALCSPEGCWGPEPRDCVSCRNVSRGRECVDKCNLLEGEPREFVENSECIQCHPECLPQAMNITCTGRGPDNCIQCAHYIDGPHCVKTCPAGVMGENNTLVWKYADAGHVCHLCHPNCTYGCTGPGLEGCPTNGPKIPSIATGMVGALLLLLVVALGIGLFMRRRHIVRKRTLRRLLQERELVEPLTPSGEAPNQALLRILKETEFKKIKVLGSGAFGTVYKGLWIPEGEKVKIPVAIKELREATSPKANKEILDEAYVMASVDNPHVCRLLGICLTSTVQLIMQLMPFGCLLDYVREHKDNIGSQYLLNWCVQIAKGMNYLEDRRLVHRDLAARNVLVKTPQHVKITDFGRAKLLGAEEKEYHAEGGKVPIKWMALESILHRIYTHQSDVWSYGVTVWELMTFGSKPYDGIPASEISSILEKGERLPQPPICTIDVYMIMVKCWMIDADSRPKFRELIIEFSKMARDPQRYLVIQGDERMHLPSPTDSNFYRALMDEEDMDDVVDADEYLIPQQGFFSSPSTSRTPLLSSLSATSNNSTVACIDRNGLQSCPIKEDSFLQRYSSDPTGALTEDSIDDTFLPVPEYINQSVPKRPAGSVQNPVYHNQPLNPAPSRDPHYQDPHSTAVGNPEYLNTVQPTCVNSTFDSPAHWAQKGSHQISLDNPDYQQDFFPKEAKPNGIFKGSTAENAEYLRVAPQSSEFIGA
UniProt P00533, 25-1210 T790M/C797S/L858R limits assumed: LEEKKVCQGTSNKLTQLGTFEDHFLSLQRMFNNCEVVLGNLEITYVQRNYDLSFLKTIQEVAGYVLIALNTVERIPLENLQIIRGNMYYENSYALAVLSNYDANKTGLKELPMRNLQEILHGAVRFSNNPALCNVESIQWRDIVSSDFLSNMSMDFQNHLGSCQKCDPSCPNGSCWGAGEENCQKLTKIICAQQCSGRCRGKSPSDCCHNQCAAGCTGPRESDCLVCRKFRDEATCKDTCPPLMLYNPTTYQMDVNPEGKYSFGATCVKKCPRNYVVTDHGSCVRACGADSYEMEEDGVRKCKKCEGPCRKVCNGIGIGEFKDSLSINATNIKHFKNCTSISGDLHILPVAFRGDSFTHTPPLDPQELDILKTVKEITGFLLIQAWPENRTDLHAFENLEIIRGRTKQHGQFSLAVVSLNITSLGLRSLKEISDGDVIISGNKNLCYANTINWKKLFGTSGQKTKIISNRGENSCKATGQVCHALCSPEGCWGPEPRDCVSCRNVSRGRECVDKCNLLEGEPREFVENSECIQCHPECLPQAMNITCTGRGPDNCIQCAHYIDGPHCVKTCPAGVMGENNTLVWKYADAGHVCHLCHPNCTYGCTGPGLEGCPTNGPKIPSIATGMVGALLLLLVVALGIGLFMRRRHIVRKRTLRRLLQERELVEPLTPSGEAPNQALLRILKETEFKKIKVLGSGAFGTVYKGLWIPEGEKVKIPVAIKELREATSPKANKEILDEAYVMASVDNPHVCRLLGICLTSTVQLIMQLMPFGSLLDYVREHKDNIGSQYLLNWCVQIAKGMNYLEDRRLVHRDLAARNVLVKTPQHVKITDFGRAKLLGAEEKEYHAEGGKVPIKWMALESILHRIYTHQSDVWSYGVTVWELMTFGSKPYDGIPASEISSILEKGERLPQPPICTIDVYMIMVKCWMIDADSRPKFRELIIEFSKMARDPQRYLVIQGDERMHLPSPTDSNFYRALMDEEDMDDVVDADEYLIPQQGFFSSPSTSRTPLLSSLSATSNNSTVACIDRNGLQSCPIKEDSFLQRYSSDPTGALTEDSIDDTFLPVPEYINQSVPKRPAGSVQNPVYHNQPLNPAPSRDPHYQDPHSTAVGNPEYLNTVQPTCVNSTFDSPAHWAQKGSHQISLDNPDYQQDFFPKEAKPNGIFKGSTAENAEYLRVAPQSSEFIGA
UniProt P00533, with tags, fused parts or gaps DEL746-750 limits assumed: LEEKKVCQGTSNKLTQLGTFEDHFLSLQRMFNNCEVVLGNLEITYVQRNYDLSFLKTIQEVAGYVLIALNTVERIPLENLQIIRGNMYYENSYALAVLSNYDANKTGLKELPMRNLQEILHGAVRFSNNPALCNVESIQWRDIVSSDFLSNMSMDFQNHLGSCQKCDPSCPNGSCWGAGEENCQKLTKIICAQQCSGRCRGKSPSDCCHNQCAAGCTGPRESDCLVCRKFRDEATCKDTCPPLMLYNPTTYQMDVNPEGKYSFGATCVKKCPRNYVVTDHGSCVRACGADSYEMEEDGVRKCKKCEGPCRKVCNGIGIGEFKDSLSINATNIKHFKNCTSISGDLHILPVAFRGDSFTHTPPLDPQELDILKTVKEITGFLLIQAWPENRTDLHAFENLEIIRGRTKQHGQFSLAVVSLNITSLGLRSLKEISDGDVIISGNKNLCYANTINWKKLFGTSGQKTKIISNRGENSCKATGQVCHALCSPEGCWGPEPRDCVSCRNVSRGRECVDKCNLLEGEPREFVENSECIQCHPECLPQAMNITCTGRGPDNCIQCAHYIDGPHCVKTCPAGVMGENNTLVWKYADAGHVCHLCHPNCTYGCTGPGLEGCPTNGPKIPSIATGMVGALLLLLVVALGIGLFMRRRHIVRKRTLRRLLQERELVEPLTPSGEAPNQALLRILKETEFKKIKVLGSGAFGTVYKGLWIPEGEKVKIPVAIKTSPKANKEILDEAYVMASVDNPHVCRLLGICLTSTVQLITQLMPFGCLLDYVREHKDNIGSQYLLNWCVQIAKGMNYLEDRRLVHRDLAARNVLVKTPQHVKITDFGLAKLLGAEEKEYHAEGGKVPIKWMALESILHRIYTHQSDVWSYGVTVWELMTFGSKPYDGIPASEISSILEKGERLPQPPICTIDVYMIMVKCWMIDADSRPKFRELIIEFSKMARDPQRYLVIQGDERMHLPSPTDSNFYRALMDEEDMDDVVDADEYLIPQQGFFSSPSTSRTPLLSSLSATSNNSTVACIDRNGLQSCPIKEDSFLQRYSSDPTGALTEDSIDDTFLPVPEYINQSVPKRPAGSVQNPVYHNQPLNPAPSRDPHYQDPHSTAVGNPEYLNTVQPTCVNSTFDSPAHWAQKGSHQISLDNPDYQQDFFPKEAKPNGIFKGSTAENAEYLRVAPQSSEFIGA

What was measured:
[1] = biological target: EGFR L858R/T790M/C797S (BaF3-LTC cells) (Homo sapiens, UniProt P00533, C797S/L858R/T790M); experiment: EGFR degradation HTRF assay, BaF3-LTC cells; assay type: cell-based
Description: (§1) BaF3 WT(wild type), BaF3-LTC(L858R/T790M/C797S) and BaF3-DTC(Del19/T790M/C797S) cells are treated with compounds diluted in 0.2% DMSO cell culture medium and incubate for 16h, 37° C., 5% CO2, H1975-#36, H1975-#28, H1975-#23 and HCC827 cells are treated with compounds diluted in 0.2% DMSO cell culture medium on day 2, incubate for 16h, 37° C., 5% CO2.the final concentriation of compounds in all assay is start with 10 uM, 5-fold dilution, total 8 doses were included.
(§2) After 16h treatment, add HTRF lysis buffer to each well; seal the plate and incubate 1 hour at room temperature on a plate shaker; Once the cells are lysed, 16 μL of cell lysate are transferred to a PE 384-well HTRF detection plate; 4 μL of pre-mixed HTRF antibodies are added to each well; Cover the plate with a plate sealer, spin 1000 rpm for 1 min, Incubate overnight at room temperature; Read on BMG PheraStar with HTRF protocol (337 nm-665 nm-620 nm).
(§3) The inhibition (degradation) percentage of the compound was calculated by the following equation: Inhibition percentage of Compound=100-100×(Signal-low control)/(High control-low control), wherein signal=each test compound group
(§4) High control=Cell group with added DMSO and without compound, indicating microplate readings without EGFR degradation;
(§5) Dmax is the maximum percentage of inhibition (degradation). […]

[2] = tested on: EGFR Del19/T790M/C797S (H1975-clone #28); experiment: EGFR degradation HTRF assay, H1975-clone #28 DTC cells; assay type: cell-based; settings: H1975 # 28 DTC cells
Description: H1975-clone #28(Del19/T790M/C797S) and H1975-clone #23(Del19/C797S). EGFR-Del19/T790M/C797S and EGFR-Del19/C797S were stably expressed in H1975 cell lines by lentivirus-mediated over-expression, respectively. The EGFR over-expressed cells then underwent gene knockout, in which the EGFR targeting sgRNA was designed to only target the endogenous EGFR copies and preserve the exogenous EGFR copies. Followed by the gene knockout, the edited H1975 cells were seeded in 96 well plates at the concentration of 1 cell/well, cultured for about 2 weeks to allow single clones formation. The formed clones were screened by DNA sequencing and whole exon sequencing analysis for the desired edition. […]
as §2
(§6) The inhibition (degradation) percentage of the compound was calculated by the following equation: Inhibition percentage of Compound=100-100×(Signal-low control)/(High control-low control), wherein signal=each test compound group […]

EGFR (HCC827 cells) = EGFR (HCC827 cells) (Homo sapiens, UniProt P00533, DEL746-750); experiment: EGFR degradation HTRF assay, HCC827 cells; settings: HCC827, 16h treatment
Description: as §1, §2, §3, §4, §5

[3] = biological target: EGFR L858R/T790M (H1975-clone #36, homozygous) (Homo sapiens, UniProt P00533, L858R/T790M); experiment: EGFR degradation HTRF assay, H1975-clone #36 cells; settings: H1975 #36, 16h treatment
Description: H1975-clone #36(L858R/T790M). H1975 cell heterozygously (from ATCC) contains alleles of WT and L858R/T790M EGFR. H1975-clone #36(L858R/T790M) was generated by gene knockout, in which the EGFR targeting sgRNA was designed to specifically target WT EGFR but preserve the L858R/T790M copy. Followed by the gene knockout, the edited H1975 cells were seeded in 96 well plates at the concentration of 1 cell/well, cultured for about 2 weeks to allow single clones formation. The formed clones were screened by DNA sequencing for the desired edition. H1975-clone #36 was confirmed as a homozygous L858R/T790M EGFR clone. […]
as §2, §6

[4] = maximum percentage of inhibition (degradation)
[5] = maximum percentage of degradation

| HCC827 Dmax (%) (EGFR (HCC827 cells); [5]) | DC50 (EGFR (HCC827 cells); read-out: HCC827 DC50) | H1975 #36 Dmax (%) [3, 5] | DC50 ([3]; read-out: H1975 #36 DC50) | Structure (SMILES) | Dmax (%) BaF3-LTC [1, 4] | DC50 ([1]; read-out: DC50(nM) BaF3-LTC, EGFR degradation, IC50 (DC50) from curve fit) | Dmax (%) H1975 # 28 DTC [2, 4] | DC50 ([2]; read-out: DC50(nM) H1975 # 28 DTC, EGFR degradation, IC50 (DC50) from curve fit) |
| --- | --- | --- | --- | --- | --- | --- | --- | --- |
| – | – | – | – | CCOc1cc(N2CCC(N3CCN(C(=O)[C@@H]4CCN(c5cc(F)c(C6CCC(=O)NC6=O)c(F)c5)C4)CC3)CC2)c(CC)cc1Nc1ncc(Br)c(Nc2ccc3cnc(C)cc3c2P(C)(C)=O)n1 (some centres unmarked) | 72.22% | 15.9 nM | 77.55% | 2.27 nM |
| 65.89% | 29.1 nM | 10.7% | > 10000 nM | COc1cc(N2CCC(N(C)CC3CCN(c4ccc(N5CCC(=O)NC5=O)cc4C)CC3)CC2)c(C)cc1Nc1ncc(Br)c(Nc2ccc3nccnc3c2P(C)(C)=O)n1 | – | – | – | – |
